Reference: patent US20100273696A1, “Composition and method for the prevention and removal of unwanted paint on a surface” (priority 2009, published 2010)

Experiment: Solubility in water of possible ingredients
Type: physicochemical
Conditions: result in words

Substance: PEG-8 Oleate
- Solubility in H2O: complete
